For four compounds, Ki results are on record in ChEMBL document CHEMBL1154744, “HIV-1 protease inhibitors with a transition-state mimic comprising a tertiary alcohol: improved antiviral activity in cells” (J Med Chem, 2010).

This experiment has as its target Protease (Human immunodeficiency virus 1, UniProt Q9YQ12). Briefly: Inhibition of HIV1 protease expressed in Escherichia coli by fluorometric assay.
Consider `CC(C)(C)NC(=O)[C@@H]1C[C@@H]2CCCC[C@@H]2CN1C[C@@H](O)[C@H](Cc1ccccc1)NC(=O)[C@H](CC(N)=O)NC(=O)c1ccc2ccccc2n1`, for which the affinity corresponds to a Ki of 0.2 nM.

With `CC(C)(C)NC(=O)[C@@H]1CN(Cc2cccnc2)CCN1C[C@@H](O)C[C@@H](Cc1ccccc1)C(=O)N[C@H]1c2ccccc2C[C@H]1O`, the Ki (commonly a measure of affinity in units of concentration, obtained from inhibition or displacement) was 0.3 nM.

As to `COC(=O)N[C@H](C(=O)NN(CC[C@@](O)(Cc1ccccc1)C(=O)N[C@H]1c2ccccc2C[C@H]1O)Cc1ccc(-c2ccccn2)cc1)C(C)(C)C`, affinity was put at a Ki of 1.7 nM. Compared with the last compound, the Ki is about 5.7-fold higher.

Consider `Cc1cccc(C)c1OCC(=O)N[C@@H](Cc1ccccc1)[C@@H](O)C[C@H](Cc1ccccc1)NC(=O)[C@H](C(C)C)N1CCCNC1=O` [LOPINAVIR], for which the affinity corresponds to a Ki of 1.4 nM.
